Reference: ChEMBL document CHEMBL1146689, “The design and synthesis of a novel quinolizidine template for potent opioid and opioid receptor-like (ORL1, NOP) receptor ligands” (2004)

The chains behind the UniProt entries cited, without tags or fusion partners.
UniProt P35372, whole entry: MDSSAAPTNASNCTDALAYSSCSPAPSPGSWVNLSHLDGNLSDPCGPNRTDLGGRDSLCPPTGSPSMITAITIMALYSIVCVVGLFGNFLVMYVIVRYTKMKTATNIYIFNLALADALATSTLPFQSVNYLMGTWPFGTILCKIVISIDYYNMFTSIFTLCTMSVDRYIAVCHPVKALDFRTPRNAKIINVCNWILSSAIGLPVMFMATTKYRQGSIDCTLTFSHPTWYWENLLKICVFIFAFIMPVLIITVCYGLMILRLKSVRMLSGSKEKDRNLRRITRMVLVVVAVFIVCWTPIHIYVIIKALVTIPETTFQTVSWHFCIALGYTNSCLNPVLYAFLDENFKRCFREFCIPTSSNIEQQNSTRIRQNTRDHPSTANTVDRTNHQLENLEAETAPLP
UniProt P41146, whole entry: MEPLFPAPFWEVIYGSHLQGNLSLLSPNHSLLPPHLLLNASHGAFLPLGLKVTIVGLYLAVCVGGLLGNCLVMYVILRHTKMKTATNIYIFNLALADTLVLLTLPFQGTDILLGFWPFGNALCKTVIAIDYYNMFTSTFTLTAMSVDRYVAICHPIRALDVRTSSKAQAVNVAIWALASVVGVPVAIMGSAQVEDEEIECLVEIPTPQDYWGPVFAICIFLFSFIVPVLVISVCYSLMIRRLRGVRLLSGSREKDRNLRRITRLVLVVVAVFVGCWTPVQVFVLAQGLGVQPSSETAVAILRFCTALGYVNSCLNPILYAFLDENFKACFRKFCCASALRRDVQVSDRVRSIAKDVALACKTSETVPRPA
UniProt P41143, whole entry: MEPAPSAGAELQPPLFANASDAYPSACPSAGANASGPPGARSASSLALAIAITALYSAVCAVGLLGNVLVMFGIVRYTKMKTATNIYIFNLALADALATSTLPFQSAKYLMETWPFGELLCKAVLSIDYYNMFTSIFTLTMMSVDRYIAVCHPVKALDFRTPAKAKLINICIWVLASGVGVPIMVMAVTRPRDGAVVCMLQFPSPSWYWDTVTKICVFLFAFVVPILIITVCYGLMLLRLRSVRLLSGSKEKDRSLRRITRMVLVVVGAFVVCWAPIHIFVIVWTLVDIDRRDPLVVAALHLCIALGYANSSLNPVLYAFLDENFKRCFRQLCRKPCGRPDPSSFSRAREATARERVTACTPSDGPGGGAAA
UniProt P41145, whole entry: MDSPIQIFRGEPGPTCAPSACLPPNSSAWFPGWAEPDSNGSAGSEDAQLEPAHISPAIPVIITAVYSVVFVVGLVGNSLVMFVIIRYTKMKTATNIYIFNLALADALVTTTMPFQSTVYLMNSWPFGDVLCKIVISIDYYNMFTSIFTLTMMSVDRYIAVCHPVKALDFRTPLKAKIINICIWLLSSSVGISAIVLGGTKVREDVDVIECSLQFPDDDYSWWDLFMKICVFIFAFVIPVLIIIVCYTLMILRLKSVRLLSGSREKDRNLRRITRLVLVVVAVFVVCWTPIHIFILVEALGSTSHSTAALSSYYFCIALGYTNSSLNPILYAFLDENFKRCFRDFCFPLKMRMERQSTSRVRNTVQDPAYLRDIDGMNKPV

Experiments:
Mu-type opioid receptor = Mu-type opioid receptor (Homo sapiens, UniProt P35372); assay: Binding affinity for human opioid receptor mu 1 using [3H]- DAMGO as radioligand transfected into CHO cells
Nociceptin receptor = Nociceptin receptor (Homo sapiens, UniProt P41146); assay: Binding affinity for human nociceptin (NOP) receptor using [3H]N/OFQ as radioligand transfected into CHO cells
[1] = biological target: Delta-type opioid receptor (Homo sapiens, UniProt P41143); assay: Binding affinity for human opioid receptor delta 1 using [3H]- CL-DPDPE as radioligand transfected into CHO cells
[2] = biological target: Kappa-type opioid receptor (Homo sapiens, UniProt P41145); assay: Binding affinity for human opioid receptor kappa 1 using [3H]- U-69,593 as radioligand transfected into CHO cells

O=c1[nH]c2ccccc2n1[C@H]1CCN2[C@H](CCC[C@H]2c2ccccc2)C1
Ki (Mu-type opioid receptor): 0.0477 µM
Ki (Nociceptin receptor): 0.786 µM
Ki [1]: > 10 µM
Ki [2]: 0.271 µM

CCn1c(=O)n([C@H]2CCN3[C@H](CCC[C@H]3c3ccccc3)C2)c2ccccc21
Ki (Mu-type opioid receptor): 0.0176 µM
Ki (Nociceptin receptor): 0.535 µM
Ki [1]: 1.84 µM
Ki [2]: 0.987 µM

O=c1[nH]c2ccccc2n1[C@@H]1CCN2[C@H](CCC[C@H]2c2ccccc2)C1
Ki (Mu-type opioid receptor): 0.00524 µM
Ki (Nociceptin receptor): 0.0057 µM
Ki [1]: 1.72 µM
Ki [2]: 0.0011 µM

CCn1c(=O)n([C@@H]2CCN3[C@H](CCC[C@H]3c3ccccc3)C2)c2ccccc21
Ki (Mu-type opioid receptor): 0.00254 µM
Ki (Nociceptin receptor): 0.0196 µM
Ki [1]: 1.49 µM
Ki [2]: 0.0227 µM
